By UniProt entry, the sequences of proteins in these tests, tags left out. Residues count along the entry.
UniProt P36544, 23-502: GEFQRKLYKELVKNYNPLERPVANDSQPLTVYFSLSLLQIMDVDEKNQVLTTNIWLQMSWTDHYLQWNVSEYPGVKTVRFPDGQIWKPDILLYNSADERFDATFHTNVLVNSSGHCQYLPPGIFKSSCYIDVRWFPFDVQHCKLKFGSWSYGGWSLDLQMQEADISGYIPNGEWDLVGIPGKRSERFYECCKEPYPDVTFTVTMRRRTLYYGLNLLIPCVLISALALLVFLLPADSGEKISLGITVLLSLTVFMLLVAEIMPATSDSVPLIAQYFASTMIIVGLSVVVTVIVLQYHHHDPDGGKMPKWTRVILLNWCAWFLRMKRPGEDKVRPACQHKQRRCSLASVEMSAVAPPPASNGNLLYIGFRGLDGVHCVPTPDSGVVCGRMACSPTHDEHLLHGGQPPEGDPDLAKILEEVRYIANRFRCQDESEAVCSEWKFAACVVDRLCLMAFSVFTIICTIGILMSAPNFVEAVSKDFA

According to publication PMC10531384:

Target: SNAP-α7 nicotinic acetylcholine receptor (UniProt P36544)
Test: FRET or BRET; TR-FRET on HEK293T cells expressing SNAP-α7nAChR (surface receptor labelled with Lumi4-Tb) and NACHO; 10 nM Aβ42-FAM with varying concentrations of unlabeled Aβ42; Tag-lite medium, 2–4 h at room temperature; non-specific binding with 1 μM unlabeled Aβ42

Substance: Aβ1–42 human, unlabeled (from UniProt P05067 672-713) (peptide; Terbium cryptate (Lumi4-Tb) on the SNAP tag; other documents disagree on this pair)
- IC50: 1.3 pM
